{"source": "published antibiotic growth screens (doi:10.1038/s41589-023-01349-8)", "note": "Some of the results follow.", "data": [{"system": "A. baumannii ATCC 17978", "assay": "relative growth (fraction of control); higher = less inhibition", "details": "50 µM", "values": [{"smiles": "COc1c2occc2cc2ccc(=O)oc12", "relative growth": 0.93}, {"smiles": "OCCN1C[C@@H](O)[C@@H](O)[C@@H](O)[C@@H]1CO", "relative growth": 1.05}, {"smiles": "C[C@@H](NCCC(c1ccccc1)c1ccccc1)c1ccccc1", "relative growth": 0.743}, {"smiles": "O=C(C[C@@H]1C=C[C@@H](NC(=O)Nc2ccc3c(c2)OCO3)[C@H](CO)O1)NCCCN1CCOCC1", "relative growth": 0.938}, {"smiles": "Cc1ccc(-c2ccc3c(c2)O[C@@H](CN(C)C(=O)NC(C)C)[C@@H](C)CN([C@H](C)CO)S3(=O)=O)cc1", "relative growth": 0.794}, {"smiles": "Oc1ccc2ccccc2c1", "relative growth": 0.613}, {"smiles": "Cc1cccc([C@@H](N)c2nccn2C)c1", "relative growth": 0.862}, {"smiles": "Nc1ccc(-n2nn[nH]c2=S)cc1", "relative growth": 1.01}, {"smiles": "O=C(N[C@H]1CC[C@@H](CCNS(=O)(=O)c2ccc(F)cc2)O[C@H]1CO)C1CC1", "relative growth": 0.926}, {"smiles": "CC(=O)Oc1ccccc1C(=O)Nc1ncc([N+](=O)[O-])s1", "relative growth": 0.81}, {"smiles": "COC(=O)c1cc(OC)c(OC)c(OC)c1", "relative growth": 0.944}, {"smiles": "CCCN1C(=O)C[C@@H](N2CCOCC2)C1=O", "relative growth": 1.02}, {"smiles": "CO[C@H]1CN(C)C(=O)c2ccc(NS(C)(=O)=O)cc2OC[C@@H](C)N(C(=O)C2CCOCC2)C[C@@H]1C", "relative growth": 1.14}, {"smiles": "CCOC(=O)CCc1n[nH]c(=O)[nH]c1=O", "relative growth": 0.872}, {"smiles": "Oc1cc(O)c2c(c1)O[C@H](c1ccc(O)c(O)c1)[C@@H](O)C2", "note": "[CIANIDANOL [+-catechin]]", "relative growth": 0.94}, {"smiles": "COCc1cc(C)nc(N)c1C#N", "relative growth": 0.911}, {"smiles": "N#Cc1cc(F)cc(Oc2ccc(S(=O)(=O)C(F)F)c3c2CC(F)(F)[C@@H]3O)c1.N#Cc1cc(F)cc(Oc2ccc(S(=O)(=O)C(F)F)c3c2CC(F)(F)[C@H]3O)c1", "relative growth": 1.13}, {"smiles": "CC1(C)OC(=O)C(OCC2CC2)=C1c1ccc(S(C)(=O)=O)cc1", "relative growth": 0.997}, {"smiles": "CCCCC(O)c1ccccc1", "note": "(centres undefined)", "relative growth": 0.987}, {"smiles": "CN(C)Cc1cn(CC[C@H]2CC[C@@H](N)[C@H](CO)O2)nn1", "relative growth": 0.939}, {"smiles": "C/N=C1/S[C@@H]2CS(=O)(=O)C[C@@H]2N1C", "relative growth": 0.898}, {"smiles": "CO[C@H]1CN(C)C(=O)c2ccc(NS(=O)(=O)c3cn(C)cn3)cc2OC[C@@H](C)N(Cc2cccc(F)c2)C[C@H]1C", "relative growth": 0.891}, {"smiles": "CC(C)(C(=O)O)c1ccc([C@@H](O)CCCN2CCC(C(O)(c3ccccc3)c3ccccc3)CC2)cc1", "relative growth": 0.931}, {"smiles": "CO[C@H]1CN(C)C(=O)c2ccc(NC(=O)C3CCOCC3)cc2OC[C@@H](C)N(Cc2cccnc2)C[C@@H]1C", "relative growth": 1.07}, {"smiles": "COc1cccc(NC(=O)N[C@@H]2CC[C@@H](CC(=O)N3CCOCC3)O[C@H]2CO)c1", "relative growth": 0.973}, {"smiles": "Cc1c(C)c2ccc(O[C@@H]3O[C@H](CO)[C@H](O)[C@H](O)[C@H]3O)cc2oc1=O", "relative growth": 0.963}, {"smiles": "C=CCOC(=O)[C@H]1[C@@H]2C(=O)O[C@@H](c3ccccc3)[C@@H](c3ccccc3)N2[C@@H](c2ccc(OCCOC(=O)[C@H]3C[C@H]4C(=O)NCC(=O)N4[C@H]3c3cccc(OCCO)c3)cc2)[C@]12C(=O)Nc1ccc(I)cc12", "relative growth": 1.08}, {"smiles": "COc1cccc(NC(=O)N[C@@H]2C=C[C@@H](CC(=O)N3CCOCC3)O[C@H]2CO)c1", "relative growth": 1.03}, {"smiles": "O=c1cc(-c2ccccc2)oc2c(O)c(O)ccc12", "relative growth": 0.898}, {"smiles": "CCCCOCCOCCOCc1cc2c(cc1CCC)OCO2", "relative growth": 1.03}, {"smiles": "Cc1cc(-c2ccc(/N=N/c3ccc4c(S(=O)(=O)[O-])cc(S(=O)(=O)[O-])c(N)c4c3O)c(C)c2)ccc1/N=N/c1ccc2c(S(=O)(=O)[O-])cc(S(=O)(=O)[O-])c(N)c2c1O.[Na+].[Na+].[Na+].[Na+]", "relative growth": 5.51}, {"smiles": "CC(=O)NCCCC[C@@H]1NC(=O)[C@H]2C[C@@H](C(=O)NCCCCCCNC(=O)CS)[C@@H](c3ccc(O)cc3)N2C1=O", "relative growth": 1.19}, {"smiles": "COc1ccc([C@@H]2CC(=O)c3c(O)cc(O)cc3O2)cc1O", "relative growth": 0.899}, {"smiles": "C=CC[C@H](CC(=O)NCCO)C(=O)N[C@@H](COC(=O)[C@@H](CC=C)CC(=O)OC(C)(C)C)Cc1c[nH]c2ccccc12", "relative growth": 1}, {"smiles": "COc1ccccc1CNC(=O)C[C@@H]1C[C@@H]2c3cc(NC(=O)Nc4ccc(C(F)(F)F)cc4)ccc3O[C@@H]2[C@@H](CO)O1", "relative growth": 0.828}, {"smiles": "CC[C@H](CCC(C)[C@H]1CCC2C3CCC4C[C@@H](O)CC[C@]4(C)C3CC[C@@]21C)C(C)C", "note": "(some centres undefined)", "relative growth": 0.987}, {"smiles": "CN1CCc2cccc3c2C1Cc1ccc(O)c(O)c1-3.Cl", "note": "(centres undefined)", "relative growth": 0.886}, {"smiles": "O=C1OCCN(c2ccccc2)C1=O", "relative growth": 0.794}, {"smiles": "CO[C@H](CN(C)C(=O)c1ccc2c(c1)OCO2)[C@H](C)CN([C@H](C)CO)S(=O)(=O)c1ccc(F)cc1", "relative growth": 1.27}, {"smiles": "C=CCC(N)(CC=C)c1ccc(C)cc1", "relative growth": 0.987}, {"smiles": "CCOC(=O)C1CCN(c2cn[nH]c(=O)n2)CC1", "relative growth": 0.842}, {"smiles": "Cc1ccccc1S(=O)(=O)N1C[C@H](O)COC[C@H]2O[C@@H](CC(=O)N3CCN(C)CC3)CC[C@@H]21", "relative growth": 0.891}, {"smiles": "COC(=O)C[C@H]1C2(C)CC34OC5(C)O[C@@]6([C@H](OC(C)=O)C(OC(C)=O)[C@]7(C)C(/C(=C(/O)C(C)C)C(=O)O[C@H]7c7ccoc7)[C@@]6(O5)[C@H](OC(C)=O)[C@@]3(O)C2OC(=O)C(C)C)[C@]14C", "note": "(some centres undefined)", "relative growth": 0.99}, {"smiles": "Cn1c(=O)n(C)c2cc(CN)ccc21", "relative growth": 1.07}, {"smiles": "CCNc1nc2nonc2nc1NCC", "relative growth": 1.07}, {"smiles": "N#CCSc1ncnc2c1cnn2CCO", "relative growth": 1.17}, {"smiles": "CO[C@H]1CN(C)C(=O)c2ccc(NS(C)(=O)=O)cc2OC[C@@H](C)N(C(=O)CN(C)C)C[C@@H]1C", "relative growth": 0.927}, {"smiles": "COC(=O)C1=C(C)NC(C)=C(C(=O)OCCN(C)Cc2ccccc2)C1c1cccc([N+](=O)[O-])c1.Cl", "note": "(centres undefined)", "relative growth": 1.06}, {"smiles": "COC(=O)[C@@H](Cc1ccccc1)N[C@H](/C=C/C1CC1)[C@@H](O)CCn1cc(-c2ccc(C(=O)NO)s2)nn1", "relative growth": 1.03}, {"smiles": "CO[C@@H](CN(C)S(=O)(=O)c1ccc(C)cc1)[C@H](C)CN([C@H](C)CO)S(=O)(=O)c1cccc(Cl)c1", "relative growth": 0.862}, {"smiles": "Cc1ccc(OCCn2c(CC(C)(C)C)nc3ccccc32)cc1", "relative growth": 0.768}, {"smiles": "O=C(C[C@@H]1CC[C@@H]2[C@H](COC[C@H](O)CN2C(=O)Nc2cc(Cl)cc(Cl)c2)O1)N1CCOCC1", "relative growth": 0.942}, {"smiles": "CCN1C(=O)[C@H]2[C@@H](O)CS[C@H]2C1=O", "relative growth": 0.93}, {"smiles": "COc1cccc(S(=O)(=O)Nc2ccc3c(c2)[C@H]2C[C@H](CC(=O)NCc4ccccc4F)O[C@H](CO)[C@H]2O3)c1", "relative growth": 0.753}]}]}
